# Measured affinities in a library of Ab-14 light chain variants

Source: Li et al. 2023 (doi:10.1038/s41467-023-39022-2), MIT Lincoln Laboratory and A-Alpha Bio; data file from the FLAb repository.

Target: peptide PDVDLGDISGINAS, taken from heptad repeat 2 (HR2) of SARS-CoV-2 spike.

Parent: Ab-14, a human scFv built as VH, three GGGGS repeats, VL. Only the CDRs of the light chain vary.
VH: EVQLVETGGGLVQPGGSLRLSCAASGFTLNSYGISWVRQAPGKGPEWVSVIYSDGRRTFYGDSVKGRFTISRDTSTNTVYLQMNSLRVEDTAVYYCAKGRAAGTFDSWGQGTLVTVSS
VL: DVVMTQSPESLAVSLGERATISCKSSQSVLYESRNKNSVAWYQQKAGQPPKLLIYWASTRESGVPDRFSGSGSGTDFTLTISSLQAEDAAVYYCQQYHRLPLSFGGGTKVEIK

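Phage display of a naive human antibody library on the peptide gave the parent. The variants were designed computationally from a first round of random CDR variants and then made and measured. Several design methods are mixed in this list. In AlphaSeq, yeast of one mating type display the scFv and yeast of the other type display the target. Binding brings cells together so that they mate, and sequencing counts the barcode pairs among the diploids. A regression on co-assayed BCL2-family reference pairs converts the normalised counts of each replicate to an apparent Kd. Each pool was mated in six replicate cultures.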

Variants are written as CDR1, CDR2 and CDR3 of the light chain (limits as in the source). Parent: KSSQSVLYESRNKNSVA, WASTRES, QQYHRLPLS. Kd is apparent (estimated from mating counts) and averaged on the log scale over replicates with a signal. Smaller is tighter. An entry "nd" has no value in the source: the pair was not observed among the diploids in any replicate. This suggests poor binding but is not conclusive.

For KISMLYNYAQTNKNSIA, EMTTRES, QHYHRLPLS, the assay gave 37 nM (6 of 6 replicates; controls 0 of 18).
For KLSQLFYKESSNKNNVA, EMTTRGS, QQYDRLPLS, the assay gave 880 pM (6 of 6 replicates; controls 0 of 18).
For KIGATLNMLEHKQNNVA, DLVTREN, QQYFRLPLS, the assay gave 1.2 nM (6 of 6 replicates; controls 1 of 18).
For KCDQWVFYGDRWKNSVA, NASTREQ, QQYHRLPLS, the assay gave 23 nM (6 of 6 replicates; controls 2 of 18).
For KVSQSVLYEQRNKNSVA, NASQRES, QQYHRLPLS, the assay gave 660 pM (6 of 6 replicates; controls 1 of 18).
For IVSQLMLVGIHAKNSIA, EAQMRLN, QQYDRLPLF, the assay gave nd (0 of 6 replicates; controls 0 of 18).
For KSSQSVWYESRNANSVA, QASTRES, QQYHRLPLS, the assay gave 14 nM (6 of 6 replicates; controls 0 of 18).
For ISSQSVLYESENKNSVA, GASTRES, QQYHRLPLS, the assay gave 3.4 nM (6 of 6 replicates; controls 0 of 18).
For QLYELSVELSGKTHSVA, DNSTRGD, QQYFRLPLD, the assay gave 830 nM (5 of 6 replicates; controls 3 of 18).
For KLSQSVMYESRNKNSVA, EASTRES, QQYHRLPLS, the assay gave 2.7 nM (6 of 6 replicates; controls 1 of 18).
For KQSQSGMMESRNQNSVA, QASTRLS, QQYHRLPLS, the assay gave 2.1 nM (6 of 6 replicates; controls 0 of 18).
For HISELMYYQSRNKNNIA, EMSTRER, QHYHRLPLS, the assay gave 1.3 nM (6 of 6 replicates; controls 0 of 18).
For HLTMFSQGQGLMKNAIA, EDSEVAT, QQYVQLPLV, the assay gave 43 nM (5 of 6 replicates; controls 0 of 18).
For KSQQSVLYESRNKNSVA, HASTRMD, QQYHRLPLS, the assay gave 3.3 nM (6 of 6 replicates; controls 5 of 18).
For KSSQSVPYESRNKNSVA, GASTRES, QQYHRLPLS, the assay gave 3.9 nM (12 of 12 replicates; controls 1 of 36).
For KLQISDGYEQRNKNSVA, EASTRCD, QQYHRLPLS, the assay gave 480 pM (6 of 6 replicates; controls 0 of 18).
For IIYESVGTLSRNKNSVA, DNSTREK, QQYDRLPLS, the assay gave 1.0 µM (4 of 6 replicates; controls 1 of 18).
For KVSGSHLYESRNKNAVA, EASTRES, QQYHRLPLS, the assay gave 310 pM (6 of 6 replicates; controls 0 of 18).
For KLYQNVGTMSHNKQNIA, DMERRED, QQYHRLPLS, the assay gave 3.7 nM (6 of 6 replicates; controls 0 of 18).
For KLSSFHNVEQINKSNVA, EMVTRES, QQYDRLPLS, the assay gave 65 nM (6 of 6 replicates; controls 0 of 18).
For KSSQMVEYESRNKNSVA, AASTCES, QQYHRLPLS, the assay gave 250 nM (6 of 6 replicates; controls 1 of 18).
For KVSQSWLYESRNFWSVA, GASTRES, QQYHRLPLS, the assay gave 59 nM (5 of 6 replicates; controls 0 of 18).
For KSSSSVLYESRNKNNVA, NASTRES, YQYSRLPLS, the assay gave 10 nM (6 of 6 replicates; controls 1 of 18).
For KLSQSFLYESRNKNSVA, GASTRES, QEYHRLPLS, the assay gave 650 pM (6 of 6 replicates; controls 0 of 18).
For RFSQTEQMGIRDYNSVA, NGSTVNT, QHYSRLPIS, the assay gave 9.2 nM (6 of 6 replicates; controls 2 of 18).
For KLSQSHLYESRNSNNVA, MASTRMV, QQYHRLPLS, the assay gave 820 pM (6 of 6 replicates; controls 0 of 18).
For KIGMTLNQLQQKKNNVA, DLVMREN, QQYFRLPLS, the assay gave 1.3 nM (6 of 6 replicates; controls 1 of 18).
For KLQQSQLYESRNKNSVA, HASTRES, QQYHRLPLS, the assay gave 690 pM (6 of 6 replicates; controls 1 of 18).
For HIQDDAGGLTEQFDSVA, STEERSY, QQYSRLPLS, the assay gave 13 nM (6 of 6 replicates; controls 1 of 18).
For KVDQWVEYESRNKNSVA, SASQRFS, QQYHRLPLS, the assay gave 3.7 nM (6 of 6 replicates; controls 4 of 18).
For TLSQLMDMTSHNVNSVA, DLTTRGN, QQYHRLPLS, the assay gave 950 pM (6 of 6 replicates; controls 1 of 18).
For KSSQSCLYESRNKNSVA, WASTRES, QQYHRLPLS, the assay gave 230 nM (4 of 6 replicates; controls 2 of 18).
For QFDTNLQYMGANKNSVA, EMTERTT, QQYHRLPIE, the assay gave 14 nM (6 of 6 replicates; controls 1 of 18).
For KLSQSVDYESRNKNSVA, NASTRLS, QQYHRLPLS, the assay gave 1.4 nM (6 of 6 replicates; controls 0 of 18).
For ALSQSGLYESRMKNSVA, NASTREE, QQYHRLPLS, the assay gave 2.4 nM (6 of 6 replicates; controls 0 of 18).
For KSSISYEYESMNKNSVA, NASTRES, QQYHRLPLS, the assay gave 1.5 nM (6 of 6 replicates; controls 1 of 18).
For KLSMSMLMEQRHKNSVA, ENSTREE, QHYHRLPLS, the assay gave nd (0 of 6 replicates; controls 0 of 18).

For reference, 4 entries of the list once more:

CDR-L1	CDR-L2	CDR-L3	apparent Kd	detected	control signals
HISELMYYQSRNKNNIA	EMSTRER	QHYHRLPLS	1.3 nM	6/6	0/18
KVSGSHLYESRNKNAVA	EASTRES	QQYHRLPLS	310 pM	6/6	0/18
KLYQNVGTMSHNKQNIA	DMERRED	QQYHRLPLS	3.7 nM	6/6	0/18
KSSQSVPYESRNKNSVA	GASTRES	QQYHRLPLS	3.9 nM	12/12	1/36

The parent sequence was in this pool as ten entries: three were never detected, three once, and four in most replicates, with averages from 2.2 nM to 240 nM. The authors' rule: three or more of the six replicates give a measured affinity, fewer mean a poor binder. The range of this assay differs from that of the first round, and the authors advise against merging the two. Nonspecific signal, from three strains lacking the peptide, appeared in 4% of pairings of all light chain designs, centred on 430 nM (5% of these signals below 38 nM); values are not corrected for it. For each scFv, signals with the empty controls are counted beside the result. A sequence that the file lists under several names has all its replicates pooled.